Measurements: PMC10304470, “Characterization of the Antimicrobial Activities of Trichoplusia ni Cecropin A as a High-Potency Therapeutic against Colistin-Resistant Escherichia coli” (Pharmaceutics, 2023)

Assays:
E. coli (KCTC 1682) = format: cell-based, Escherichia coli; conditions: MH broth, 2 × 10^5 cells/mL, 16 h, 37 °C, OD600, >95% killing
From the text: (§1) E. coli (KCTC 1682) was obtained from the Korean Collection for Type Cultures (KCTC, Jeongeup, Republic of Korea), and Acinetobacter baumannii (KCCM 40203) and Pseudomonas aeruginosa (KCCM 11328) from the Korea Culture Center of Microorganisms (KCCM, Seoul, Republic of Korea). Klebsiella pneumoniae (NCCP 16054), colistin-resistant E. coli NMA 1557 (ColREC 1557), NMS 12 (ColREC 12), and colistin-resistant A. baumannii NMS 1915 (ColRAB 1915), as well as colistin-resistant K. pneumoniae NMS 139 (ColRKP 139), were obtained from the National Institute of Health Multidrug Resistant Bacteria Specialized Pathogen Resources Bank (Osong, Republic of Korea).
(§2) The antibacterial abilities of the peptides (T. ni cecropin, cecropin A, polymyxin B, colistin, and melittin) were determined using the broth dilution method as previously reported. The peptides dissolved at 10 mg/mL in deionized water were serially diluted from 64 μM to 0.5 μM in 96-well plates using Mueller–Hinton (MH) broth, and bacteria cultured to exponential growth were added at 2 × 10^5 cells/mL. The group of bacteria that grew untreated in the broth was set as the positive control, and the uninoculated broth as the negative control. […] After 16 h incubation at 37 °C, the absorbance at 600 nm was measured using a SpectraMAX microplate reader (Molecular Devices, San Jose, CA, USA).

RAW 264.7 cells = experiment: Cytotoxicity, WST-8; format: cell-based, mouse; conditions: 12.5 μM peptide, 24 h
Procedure: Murine macrophage RAW 264.7 cells and mouse fibroblast L-929 cells were used for research and were purchased from the Korea Cell Line Bank (Seoul, Republic of Korea). Both cells were cultured in Dulbecco’s Modified Eagle’s Medium (DMEM; Welgene, Gyeongsan, Republic of Korea) supplemented with 10% fetal bovine serum and 1% antibiotics (penicillin/streptomycin) at 37 °C in the presence of 5% CO2. To measure the cytotoxicities of peptides against RAW 264.7 cells and L-929 cells, both cell lines were seeded at a density of 1 × 10^5 cells/well in a 96-well plate, to which each concentration of peptide solution (from 1.6 μM to 100 μM) was added, followed by incubation for 22 h. Subsequently, WST-8 (Biomax Co., Ltd., Guri, Republic of Korea) was added at 10% volume of the final solution, and the mixture was incubated for an additional 2 h. Absorbance was measured at 450 nm. Percentages were calculated based on untreated cells.

[1] = tested on: Pseudomonas aeruginosa (KCCM 11328); format: cell-based; conditions: P. aeruginosa; MH broth, 2 × 10^5 cells/mL, 16 h, 37 °C, OD600, >95% killing
From the text: as §1, §2

[2] = tested on: sheep red blood cells (sRBCs); experiment: Hemolysis; format: cell-based; conditions: 4% sRBCs in PBS pH 7.4, 1 h, 37 °C, A405; 200 μM applied if no hemolysis at 100 μM
Procedure: Sheep red blood cells (sRBCs; KisanBio, Seoul, Republic of Korea) were added to three volumes of phosphate-buffered saline (PBS; 35 mM phosphate buffer containing 150 mM NaCl, pH 7.4) and centrifuged five times at 4 °C, 1000× g for 5 min, followed by a final suspension in PBS at 4% (w/v). Peptides serially diluted from 100 μM to 3.1 μM in PBS at 100 μL in a 96-well plate were prepared, and an equal volume of blood solution was added. After incubation at 37 °C for 1 h, the plates were centrifuged for 5 min at 4 °C, 1000× g. The absorbance of the supernatant was measured at 405 nm. The 100% hemolysis control was 0.1% Triton-X 100 added to the blood solution; the negative control was blood solution added to PBS.

CC[C@H](C)[C@H](NC(=O)CN)C(=O)NCC(=O)N[C@@H](C)C(=O)N[C@H](C(=O)N[C@@H](CC(C)C)C(=O)N[C@@H](CCCCN)C(=O)N[C@H](C(=O)N[C@@H](CC(C)C)C(=O)N[C@H](C(=O)N[C@H](C(=O)NCC(=O)N[C@@H](CC(C)C)C(=O)N1CCC[C@H]1C(=O)N[C@@H](C)C(=O)N[C@@H](CC(C)C)C(=O)N[C@H](C(=O)N[C@@H](CO)C(=O)N[C@@H](Cc1c[nH]c2ccccc12)C(=O)N[C@H](C(=O)N[C@@H](CCCCN)C(=O)N[C@@H](CCCNC(=N)N)C(=O)N[C@@H](CCCCN)C(=O)N[C@@H](CCCNC(=N)N)C(=O)N[C@@H](CCC(N)=O)C(=O)N[C@@H](CCC(N)=O)C(N)=O)[C@@H](C)CC)[C@@H](C)CC)[C@@H](C)O)[C@@H](C)O)C(C)C)C(C)C [melittin]
Minimal Inhibitory Concentration (E. coli (KCTC 1682)): 8 µM
cell viability (RAW 264.7 cells): 3.1%
Minimal Inhibitory Concentration [1]: 32 µM
HC10 (concentration that causes 10% hemolysis in sheep red blood cells) [2]: 3.1 µM
